Experimental data reported in publication PMC12678819, “Targeting bacterial kinases as a strategy to counteract antibiotic resistance” (2025).
Several values for one entry are separate records, joined by “and”; a condition that tells them apart may be missing. Identical values can stand only once.

Sequences of proteins named here, by UniProt entry; tags and fusion partners are left off. A change or cut given only in a name is not applied to a line headed by its entry. Residues count along the entry.
UniProt Q96GD4, 77-327 limits assumed: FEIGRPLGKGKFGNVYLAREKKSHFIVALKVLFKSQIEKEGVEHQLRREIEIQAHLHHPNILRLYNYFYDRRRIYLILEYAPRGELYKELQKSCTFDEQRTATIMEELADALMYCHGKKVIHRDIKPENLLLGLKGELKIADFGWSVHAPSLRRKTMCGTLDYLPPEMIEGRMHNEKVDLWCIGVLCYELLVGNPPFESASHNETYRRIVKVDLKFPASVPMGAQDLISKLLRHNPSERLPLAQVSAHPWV
UniProt O14965, 122-403 limits assumed: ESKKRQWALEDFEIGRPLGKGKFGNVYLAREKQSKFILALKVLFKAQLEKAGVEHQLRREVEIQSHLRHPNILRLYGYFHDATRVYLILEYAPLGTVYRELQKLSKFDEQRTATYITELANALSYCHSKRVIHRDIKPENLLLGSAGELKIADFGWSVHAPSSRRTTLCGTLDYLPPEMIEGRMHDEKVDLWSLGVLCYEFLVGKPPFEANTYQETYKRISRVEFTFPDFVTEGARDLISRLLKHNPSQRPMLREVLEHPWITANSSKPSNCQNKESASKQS
UniProt Q9NSY1, 38-345 limits assumed: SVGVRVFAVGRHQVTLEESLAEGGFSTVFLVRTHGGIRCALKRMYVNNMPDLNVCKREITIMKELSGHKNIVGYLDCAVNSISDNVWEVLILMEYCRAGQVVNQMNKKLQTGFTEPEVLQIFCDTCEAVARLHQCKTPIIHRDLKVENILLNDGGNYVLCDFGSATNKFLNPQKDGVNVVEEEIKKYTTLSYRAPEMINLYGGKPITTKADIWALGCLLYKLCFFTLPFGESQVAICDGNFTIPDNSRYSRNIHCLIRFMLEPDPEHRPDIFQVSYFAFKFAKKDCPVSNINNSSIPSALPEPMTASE
UniProt Q13873, 203-504 limits assumed: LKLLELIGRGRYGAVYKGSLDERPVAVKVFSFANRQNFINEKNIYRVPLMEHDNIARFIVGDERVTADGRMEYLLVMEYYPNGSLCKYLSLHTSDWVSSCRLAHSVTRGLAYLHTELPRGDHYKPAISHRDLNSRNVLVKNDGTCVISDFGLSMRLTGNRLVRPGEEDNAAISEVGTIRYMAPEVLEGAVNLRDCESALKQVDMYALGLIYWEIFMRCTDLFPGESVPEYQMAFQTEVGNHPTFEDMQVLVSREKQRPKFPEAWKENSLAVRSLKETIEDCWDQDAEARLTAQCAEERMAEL
UniProt Q8IU85: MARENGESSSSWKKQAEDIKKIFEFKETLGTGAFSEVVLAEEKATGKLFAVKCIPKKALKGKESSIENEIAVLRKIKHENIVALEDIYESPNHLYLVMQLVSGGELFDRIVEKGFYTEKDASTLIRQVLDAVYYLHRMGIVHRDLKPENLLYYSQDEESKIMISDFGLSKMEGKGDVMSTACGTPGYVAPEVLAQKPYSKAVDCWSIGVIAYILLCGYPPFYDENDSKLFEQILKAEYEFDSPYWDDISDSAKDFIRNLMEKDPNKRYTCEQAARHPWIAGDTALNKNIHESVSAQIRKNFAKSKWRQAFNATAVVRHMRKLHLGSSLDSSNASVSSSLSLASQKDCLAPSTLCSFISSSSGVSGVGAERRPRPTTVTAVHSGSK
UniProt O14936, 12-276 limits assumed: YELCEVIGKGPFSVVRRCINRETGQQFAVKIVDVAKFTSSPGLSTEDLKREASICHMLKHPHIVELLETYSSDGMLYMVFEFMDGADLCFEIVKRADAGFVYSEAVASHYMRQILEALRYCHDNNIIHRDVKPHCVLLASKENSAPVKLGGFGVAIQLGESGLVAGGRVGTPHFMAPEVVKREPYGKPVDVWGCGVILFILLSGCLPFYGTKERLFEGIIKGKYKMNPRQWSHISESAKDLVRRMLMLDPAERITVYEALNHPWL
UniProt Q00532, 4-287 limits assumed: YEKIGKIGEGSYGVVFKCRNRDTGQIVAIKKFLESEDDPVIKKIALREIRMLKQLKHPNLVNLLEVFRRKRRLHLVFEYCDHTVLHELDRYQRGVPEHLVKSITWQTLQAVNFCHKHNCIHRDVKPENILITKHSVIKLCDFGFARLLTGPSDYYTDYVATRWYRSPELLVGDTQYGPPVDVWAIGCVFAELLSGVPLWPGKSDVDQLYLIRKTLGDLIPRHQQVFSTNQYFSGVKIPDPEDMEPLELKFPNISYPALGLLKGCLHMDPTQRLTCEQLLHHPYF
UniProt P49674, 1-294 limits assumed: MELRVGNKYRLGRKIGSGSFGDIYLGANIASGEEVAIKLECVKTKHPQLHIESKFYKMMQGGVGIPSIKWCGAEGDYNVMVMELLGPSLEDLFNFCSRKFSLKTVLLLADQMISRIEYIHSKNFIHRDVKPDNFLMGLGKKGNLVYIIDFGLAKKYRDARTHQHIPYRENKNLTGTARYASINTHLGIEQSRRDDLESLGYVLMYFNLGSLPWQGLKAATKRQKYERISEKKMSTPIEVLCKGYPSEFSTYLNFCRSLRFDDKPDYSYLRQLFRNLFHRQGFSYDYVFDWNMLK
UniProt Q9UEE5, 61-321 limits assumed: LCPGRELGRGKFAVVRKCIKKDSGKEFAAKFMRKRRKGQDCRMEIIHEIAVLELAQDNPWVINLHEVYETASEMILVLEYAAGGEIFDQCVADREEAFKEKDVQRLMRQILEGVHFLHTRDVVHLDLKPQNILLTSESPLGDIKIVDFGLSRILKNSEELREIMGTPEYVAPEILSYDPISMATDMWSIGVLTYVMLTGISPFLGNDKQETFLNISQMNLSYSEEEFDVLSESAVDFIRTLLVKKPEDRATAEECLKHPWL
UniProt P54762, 619-882 limits assumed: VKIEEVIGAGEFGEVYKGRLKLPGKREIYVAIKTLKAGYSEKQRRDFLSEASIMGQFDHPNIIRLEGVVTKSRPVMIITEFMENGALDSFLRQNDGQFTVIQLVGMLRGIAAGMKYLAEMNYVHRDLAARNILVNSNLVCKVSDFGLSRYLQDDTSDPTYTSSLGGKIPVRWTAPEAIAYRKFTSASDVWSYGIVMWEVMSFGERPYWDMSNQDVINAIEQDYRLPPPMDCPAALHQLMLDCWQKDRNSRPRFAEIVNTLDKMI
UniProt P11362, 456-767 limits assumed: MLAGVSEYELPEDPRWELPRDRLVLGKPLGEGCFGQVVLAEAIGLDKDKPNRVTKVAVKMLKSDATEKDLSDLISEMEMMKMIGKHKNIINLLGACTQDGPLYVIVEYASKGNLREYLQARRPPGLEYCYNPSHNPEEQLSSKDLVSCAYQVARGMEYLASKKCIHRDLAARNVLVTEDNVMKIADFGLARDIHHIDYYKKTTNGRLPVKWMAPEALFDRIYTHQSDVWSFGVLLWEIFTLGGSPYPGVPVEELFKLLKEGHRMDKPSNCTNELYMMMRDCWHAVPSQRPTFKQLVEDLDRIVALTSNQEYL
UniProt P34947, whole entry, looked up: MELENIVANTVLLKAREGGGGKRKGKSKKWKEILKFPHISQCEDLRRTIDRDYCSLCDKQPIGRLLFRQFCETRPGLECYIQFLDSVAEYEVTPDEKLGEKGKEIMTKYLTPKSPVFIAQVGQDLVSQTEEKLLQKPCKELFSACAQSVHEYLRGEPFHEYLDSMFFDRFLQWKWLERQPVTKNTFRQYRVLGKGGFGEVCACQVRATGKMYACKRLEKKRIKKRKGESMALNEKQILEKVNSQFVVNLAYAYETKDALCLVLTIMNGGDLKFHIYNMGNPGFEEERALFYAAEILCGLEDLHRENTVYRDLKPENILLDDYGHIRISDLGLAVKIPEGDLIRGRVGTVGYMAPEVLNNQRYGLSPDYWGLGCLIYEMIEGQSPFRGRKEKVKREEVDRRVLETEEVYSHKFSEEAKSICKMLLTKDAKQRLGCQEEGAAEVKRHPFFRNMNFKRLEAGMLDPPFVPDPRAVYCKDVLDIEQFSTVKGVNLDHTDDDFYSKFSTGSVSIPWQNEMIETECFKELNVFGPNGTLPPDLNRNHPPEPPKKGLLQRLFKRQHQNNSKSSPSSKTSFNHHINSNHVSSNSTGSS
UniProt Q14680, 1-340 limits assumed: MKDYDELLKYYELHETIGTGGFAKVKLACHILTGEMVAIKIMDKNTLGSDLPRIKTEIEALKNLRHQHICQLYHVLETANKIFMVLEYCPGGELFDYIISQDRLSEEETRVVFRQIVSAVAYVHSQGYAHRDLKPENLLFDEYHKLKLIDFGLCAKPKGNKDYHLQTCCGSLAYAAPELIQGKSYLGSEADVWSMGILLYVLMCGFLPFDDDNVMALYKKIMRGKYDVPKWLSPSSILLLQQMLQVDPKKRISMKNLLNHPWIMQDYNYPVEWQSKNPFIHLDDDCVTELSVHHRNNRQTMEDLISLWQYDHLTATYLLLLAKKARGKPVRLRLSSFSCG
UniProt Q5VT25, 77-343 limits assumed: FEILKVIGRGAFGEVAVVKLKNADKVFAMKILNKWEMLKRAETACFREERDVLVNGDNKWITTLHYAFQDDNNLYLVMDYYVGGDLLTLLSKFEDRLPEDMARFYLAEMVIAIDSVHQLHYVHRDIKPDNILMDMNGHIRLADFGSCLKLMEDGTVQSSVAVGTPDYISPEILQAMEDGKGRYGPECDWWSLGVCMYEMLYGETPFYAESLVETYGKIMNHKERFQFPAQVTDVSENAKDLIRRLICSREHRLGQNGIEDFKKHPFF
UniProt Q96PY6, 1-328 limits assumed: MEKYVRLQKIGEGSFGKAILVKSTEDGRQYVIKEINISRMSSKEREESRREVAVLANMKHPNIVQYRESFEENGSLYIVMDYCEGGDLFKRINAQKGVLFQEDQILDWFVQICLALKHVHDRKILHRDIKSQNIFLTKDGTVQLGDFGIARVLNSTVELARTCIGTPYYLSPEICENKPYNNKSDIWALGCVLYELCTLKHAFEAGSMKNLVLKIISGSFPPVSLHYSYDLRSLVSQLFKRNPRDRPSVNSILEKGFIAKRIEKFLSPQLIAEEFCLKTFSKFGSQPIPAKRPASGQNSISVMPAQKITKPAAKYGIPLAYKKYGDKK
UniProt P11309, whole entry, looked up: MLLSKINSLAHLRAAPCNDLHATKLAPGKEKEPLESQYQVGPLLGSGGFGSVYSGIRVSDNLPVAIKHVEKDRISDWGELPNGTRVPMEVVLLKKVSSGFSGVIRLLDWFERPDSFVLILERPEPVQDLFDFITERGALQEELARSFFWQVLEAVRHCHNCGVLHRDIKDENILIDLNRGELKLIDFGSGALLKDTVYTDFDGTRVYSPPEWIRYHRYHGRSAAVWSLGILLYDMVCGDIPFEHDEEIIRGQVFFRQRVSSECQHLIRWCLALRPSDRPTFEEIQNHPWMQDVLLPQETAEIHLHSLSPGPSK
UniProt Q15418, 411-735 limits assumed: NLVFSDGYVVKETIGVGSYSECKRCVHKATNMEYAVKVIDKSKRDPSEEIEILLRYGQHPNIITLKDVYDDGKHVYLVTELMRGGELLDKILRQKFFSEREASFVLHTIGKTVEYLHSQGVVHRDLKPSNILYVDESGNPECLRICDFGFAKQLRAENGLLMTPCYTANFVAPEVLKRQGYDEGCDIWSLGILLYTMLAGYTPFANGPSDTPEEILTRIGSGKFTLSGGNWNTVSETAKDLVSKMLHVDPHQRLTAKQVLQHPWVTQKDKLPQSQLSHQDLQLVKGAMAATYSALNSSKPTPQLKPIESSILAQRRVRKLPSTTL
UniProt Q96SB4, 80-653 limits assumed: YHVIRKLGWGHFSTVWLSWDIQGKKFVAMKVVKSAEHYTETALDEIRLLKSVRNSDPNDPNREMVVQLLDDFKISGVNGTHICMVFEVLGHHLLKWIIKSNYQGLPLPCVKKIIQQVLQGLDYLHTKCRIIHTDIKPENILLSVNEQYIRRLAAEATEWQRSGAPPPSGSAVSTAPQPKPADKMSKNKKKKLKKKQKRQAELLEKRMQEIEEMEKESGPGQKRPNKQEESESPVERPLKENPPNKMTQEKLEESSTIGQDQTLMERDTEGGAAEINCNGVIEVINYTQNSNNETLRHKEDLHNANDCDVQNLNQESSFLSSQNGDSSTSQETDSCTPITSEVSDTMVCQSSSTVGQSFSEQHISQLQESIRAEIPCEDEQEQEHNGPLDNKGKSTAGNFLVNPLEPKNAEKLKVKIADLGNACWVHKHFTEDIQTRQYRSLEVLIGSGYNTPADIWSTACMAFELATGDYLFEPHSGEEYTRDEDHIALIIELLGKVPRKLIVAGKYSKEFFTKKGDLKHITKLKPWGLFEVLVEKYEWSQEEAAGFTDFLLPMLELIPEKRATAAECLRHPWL
UniProt Q99986: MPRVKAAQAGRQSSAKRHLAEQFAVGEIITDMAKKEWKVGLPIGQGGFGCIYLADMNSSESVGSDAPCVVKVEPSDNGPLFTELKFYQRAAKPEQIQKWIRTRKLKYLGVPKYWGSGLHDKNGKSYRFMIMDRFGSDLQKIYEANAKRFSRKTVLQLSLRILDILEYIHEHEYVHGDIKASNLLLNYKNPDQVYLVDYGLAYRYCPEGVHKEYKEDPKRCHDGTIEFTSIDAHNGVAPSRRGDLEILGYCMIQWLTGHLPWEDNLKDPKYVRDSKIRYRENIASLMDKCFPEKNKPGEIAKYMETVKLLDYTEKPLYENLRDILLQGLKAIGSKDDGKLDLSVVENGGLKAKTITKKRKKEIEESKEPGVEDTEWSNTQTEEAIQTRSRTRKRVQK

Tests used:
AAK1 = AAK1 (Homo sapiens, UniProt Q2M2I8); assay: DSF kinase panel; settings: 10 μM
ABL1 = ABL1 (Homo sapiens, UniProt P00519); assay: DSF kinase panel; settings: 10 μM
AURKB = AURKB (Homo sapiens, UniProt Q96GD4); assay: DSF kinase panel; settings: 10 μM
AurA = AurA (Homo sapiens, UniProt O14965); assay: DSF kinase panel; settings: 10 μM
BIKE = BIKE (Homo sapiens, UniProt Q9NSY1); assay: DSF kinase panel; settings: 10 μM
BMPR2 = BMPR2 (Homo sapiens, UniProt Q13873); assay: DSF kinase panel; settings: 10 μM
CAMK1D = CAMK1D (Homo sapiens, UniProt Q8IU85); assay: DSF kinase panel; settings: 10 μM
CAMK1G = CAMK1G (Homo sapiens, UniProt Q96NX5); assay: DSF kinase panel; settings: 10 μM
CAMK2B = CAMK2B (Homo sapiens, UniProt Q13554); assay: DSF kinase panel; settings: 10 μM
CASK = CASK (Homo sapiens, UniProt O14936); assay: DSF kinase panel; settings: 10 μM
CDK2 = CDK2 (Homo sapiens, UniProt P24941); assay: DSF kinase panel; settings: 10 μM
CDKL1 = CDKL1 (Homo sapiens, UniProt Q00532); assay: DSF kinase panel; settings: 10 μM
CK2a1 = CK2a1 (Homo sapiens, UniProt P68400); assay: DSF kinase panel; settings: 10 μM
CLK1 = CLK1 (Homo sapiens, UniProt P49759); assay: DSF kinase panel; settings: 10 μM
CSNK1E = CSNK1E (Homo sapiens, UniProt P49674); assay: DSF kinase panel; settings: 10 μM
DAPK3 = DAPK3 (Homo sapiens, UniProt O43293); assay: DSF kinase panel; settings: 10 μM
DRAK1 = DRAK1 (Homo sapiens, UniProt Q9UEE5); assay: DSF kinase panel; settings: 10 μM
DYRK1A = DYRK1A (Homo sapiens, UniProt Q13627); assay: DSF kinase panel; settings: 10 μM
DYRK2 = DYRK2 (Homo sapiens, UniProt Q92630); assay: DSF kinase panel; settings: 10 μM
EPHB1 = EPHB1 (Homo sapiens, UniProt P54762); assay: DSF kinase panel; settings: 10 μM
FGFR1 = FGFR1 (Homo sapiens, UniProt P11362); assay: DSF kinase panel; settings: 10 μM
GPRK5 = GPRK5 (Homo sapiens, UniProt P34947); assay: DSF kinase panel; settings: 10 μM
HIPK2 = HIPK2 (Homo sapiens, UniProt Q9H2X6); assay: DSF kinase panel; settings: 10 μM
LOK = LOK (Homo sapiens, UniProt O94804); assay: DSF kinase panel; settings: 10 μM
MAPK15 = MAPK15 (Homo sapiens, UniProt Q8TD08); assay: DSF kinase panel; settings: 10 μM
MARK3 = MARK3 (Homo sapiens, UniProt P27448); assay: DSF kinase panel; settings: 10 μM
MELK = MELK (Homo sapiens, UniProt Q14680); assay: DSF kinase panel; settings: 10 μM
MRCKa = MRCKa (Homo sapiens, UniProt Q5VT25); assay: DSF kinase panel; settings: 10 μM
NEK1 = NEK1 (Homo sapiens, UniProt Q96PY6); assay: DSF kinase panel; settings: 10 μM
NEK2 = NEK2 (Homo sapiens, UniProt P51955); assay: DSF kinase panel; settings: 10 μM
PIM1 = PIM1 (Homo sapiens, UniProt P11309); assay: DSF kinase panel; settings: 10 μM
PIM3 = PIM3 (Homo sapiens, UniProt Q86V86); assay: DSF kinase panel; settings: 10 μM
RSK1_b = RSK1_b (Homo sapiens, UniProt Q15418); assay: DSF kinase panel; settings: 10 μM
SRC = SRC (Homo sapiens, UniProt P12931); assay: DSF kinase panel; settings: 10 μM
SRPK1 = SRPK1 (Homo sapiens, UniProt Q96SB4); assay: DSF kinase panel; settings: 10 μM
TLK1 = TLK1 (Homo sapiens, UniProt Q9UKI8); assay: DSF kinase panel; settings: 10 μM
TTK = TTK (Homo sapiens, UniProt P33981); assay: DSF kinase panel; settings: 10 μM
ULK3 = ULK3 (Homo sapiens, UniProt Q6PHR2); assay: DSF kinase panel; settings: 10 μM
VRK1 = VRK1 (Homo sapiens, UniProt Q99986); assay: DSF kinase panel; settings: 10 μM
WNK1 = WNK1 (Homo sapiens, UniProt Q9H4A3); assay: DSF kinase panel; settings: 10 μM
[1] = Plasma stability assay, mouse; settings: 1 μg∙mL-1
[2] = Plasma protein binding, mouse; settings: for PPB mouse, single replicate: maus, raw data of Table 3; for PPB mouse (%): mean
[3] = Metabolic stability assay, human microsomes

## C[C@H](CO)Cn1cc(-c2c(Cl)cnc3[nH]ccc23)nn1
AAK1
  ΔTm AAK1: 5.8 °C
ABL1
  ΔTm ABL1: 2.1 °C
AURKB
  ΔTm AURKB: 6.0 °C
AurA
  ΔTm AurA: 7.6 °C
BIKE
  ΔTm BIKE: 10.2 °C
BMPR2
  ΔTm BMPR2: 6.2 °C
CAMK1D
  ΔTm CAMK1D: 1.6 °C
CAMK1G
  ΔTm CAMK1G: 1.9 °C
CAMK2B
  ΔTm CAMK2B: 0.1 °C
CASK
  ΔTm CASK: -0.5 °C
CDK2
  ΔTm CDK2: 1.7 °C
CDKL1
  ΔTm CDKL1: 0.5 °C
CK2a1
  ΔTm CK2a1: 1.8 °C
CLK1
  ΔTm CLK1: 4.8 °C
CSNK1E
  ΔTm CSNK1E: 2.9 °C
DAPK3
  ΔTm DAPK3: 5.6 °C
DRAK1
  ΔTm DRAK1: 4.5 °C
DYRK1A
  ΔTm DYRK1A: 1.6 °C
DYRK2
  ΔTm DYRK2: 3.2 °C
EPHB1
  ΔTm EPHB1: 0.5 °C
FGFR1
  ΔTm FGFR1: 1.2 °C
GPRK5
  ΔTm GPRK5: 1.1 °C
HIPK2
  ΔTm HIPK2: 1.6 °C
LOK
  ΔTm LOK: -1.7 °C
MAPK15
  ΔTm MAPK15: 4.9 °C
MARK3
  ΔTm MARK3: 1.2 °C
MELK
  ΔTm MELK: 4.1 °C
MRCKa
  ΔTm MRCKa: 0.1 °C
NEK1
  ΔTm NEK1: 1.7 °C
NEK2
  ΔTm NEK2: -0.7 °C
PIM1
  ΔTm PIM1: 1.0 °C
PIM3
  ΔTm PIM3: 0.9 °C
RSK1_b
  ΔTm RSK1_b: 1.5 °C
SRC
  ΔTm SRC: 1.4 °C
SRPK1
  ΔTm SRPK1: 0.4 °C
TLK1
  ΔTm TLK1: -1.1 °C
TTK
  ΔTm TTK: 2.6 °C
ULK3
  ΔTm ULK3: 7.1 °C
VRK1
  ΔTm VRK1: -0.3 °C
WNK1
  ΔTm WNK1: 0.0 °C
[1]
  t1/2 mouse plasma: > 4 h
[2]
  PPB mouse, single replicate: 4.7% and 20.9% and 7.9%
  PPB mouse (%): 11.2 ± 8.6%
[3]
  t1/2 human microsomes: >1 h

## C[C@@H](O)CCn1cc(-c2c(Cl)cnc3[nH]ccc23)nn1
AAK1
  ΔTm AAK1: 6.0 °C
ABL1
  ΔTm ABL1: 1.4 °C
AURKB
  ΔTm AURKB: 6.1 °C
AurA
  ΔTm AurA: 7.1 °C
BIKE
  ΔTm BIKE: 10.0 °C
BMPR2
  ΔTm BMPR2: 5.1 °C
CAMK1D
  ΔTm CAMK1D: 1.0 °C
CAMK1G
  ΔTm CAMK1G: 1.2 °C
CAMK2B
  ΔTm CAMK2B: 0.0 °C
CASK
  ΔTm CASK: -0.1 °C
CDK2
  ΔTm CDK2: 0.6 °C
CDKL1
  ΔTm CDKL1: 0.0 °C
CK2a1
  ΔTm CK2a1: 1.2 °C
CLK1
  ΔTm CLK1: 3.8 °C
CSNK1E
  ΔTm CSNK1E: 2.9 °C
DAPK3
  ΔTm DAPK3: 5.3 °C
DRAK1
  ΔTm DRAK1: 4.6 °C
DYRK1A
  ΔTm DYRK1A: 2.1 °C
DYRK2
  ΔTm DYRK2: 2.2 °C
EPHB1
  ΔTm EPHB1: 0.2 °C
FGFR1
  ΔTm FGFR1: 1.2 °C
GPRK5
  ΔTm GPRK5: 0.1 °C
HIPK2
  ΔTm HIPK2: 1.0 °C
LOK
  ΔTm LOK: -1.8 °C
MAPK15
  ΔTm MAPK15: 3.9 °C
MARK3
  ΔTm MARK3: -0.7 °C
MELK
  ΔTm MELK: 3.3 °C
MRCKa
  ΔTm MRCKa: 0.2 °C
NEK1
  ΔTm NEK1: -0.2 °C
NEK2
  ΔTm NEK2: -0.5 °C
PIM1
  ΔTm PIM1: 0.5 °C
PIM3
  ΔTm PIM3: 0.9 °C
RSK1_b
  ΔTm RSK1_b: 0.9 °C
SRC
  ΔTm SRC: 1.1 °C
SRPK1
  ΔTm SRPK1: 0.0 °C
TLK1
  ΔTm TLK1: -1.3 °C
TTK
  ΔTm TTK: 2.2 °C
ULK3
  ΔTm ULK3: 6.1 °C
VRK1
  ΔTm VRK1: -0.5 °C
WNK1
  ΔTm WNK1: -0.3 °C
[1]
  t1/2 mouse plasma: > 4 h
[2]
  PPB mouse, single replicate: 12.6% and 9.2% and 8.5%
  PPB mouse (%): 10.1 ± 2.2%
[3]
  t1/2 human microsomes: >1 h
